Literature values in publication PMC6271771, “4-Amino-substituted Benzenesulfonamides as Inhibitors of Human Carbonic Anhydrases” (Molecules, 2014).

Amino acid sequences for entries named in this document (tags omitted). Residues count along the entry.
UniProt O43570, 30-289 limits assumed: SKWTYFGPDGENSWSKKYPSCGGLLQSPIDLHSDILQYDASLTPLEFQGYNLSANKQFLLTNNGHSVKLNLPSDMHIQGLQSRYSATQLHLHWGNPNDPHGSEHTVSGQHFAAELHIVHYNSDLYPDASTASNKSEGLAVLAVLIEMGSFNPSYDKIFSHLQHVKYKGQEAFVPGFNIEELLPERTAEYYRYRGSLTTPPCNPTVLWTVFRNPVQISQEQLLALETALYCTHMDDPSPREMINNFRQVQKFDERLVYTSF

Target: CA XII (Homo sapiens, UniProt O43570)
Conditions: read-out: inhibition constant Ki for CA XII; previously reported; cited from earlier work

Nc1ccc(S(N)(=O)=O)cc1 [Compound 1, 4-Aminobenzene-1-sulfonamide, reference compound]
Ki: 37 nM
